Experimental findings from publication PMC9808001 (2022) are described below.

Protein sequences, listed by entry. Tags and fused reporters are not part of them. Residues count along the entry.
UniProt P61018, 3-174: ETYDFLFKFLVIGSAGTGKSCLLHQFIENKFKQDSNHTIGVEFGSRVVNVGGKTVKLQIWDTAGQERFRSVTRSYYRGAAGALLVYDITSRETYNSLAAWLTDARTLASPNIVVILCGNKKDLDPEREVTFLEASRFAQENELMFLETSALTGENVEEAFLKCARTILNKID
UniProt P61019, 1-172: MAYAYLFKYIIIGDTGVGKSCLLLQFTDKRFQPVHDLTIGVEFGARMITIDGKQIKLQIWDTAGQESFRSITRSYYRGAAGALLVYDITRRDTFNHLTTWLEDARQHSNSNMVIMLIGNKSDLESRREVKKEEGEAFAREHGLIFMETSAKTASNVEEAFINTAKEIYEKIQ

Where only a bound is given, the exact number is not on record here.

Assay in all cases: BLI
Test [1] addresses RAB4B (Homo sapiens (Human), UniProt P61018).
Test [2] concerns the target T1, RAB11A (Homo sapiens (Human), UniProt P62491).
T1 chain: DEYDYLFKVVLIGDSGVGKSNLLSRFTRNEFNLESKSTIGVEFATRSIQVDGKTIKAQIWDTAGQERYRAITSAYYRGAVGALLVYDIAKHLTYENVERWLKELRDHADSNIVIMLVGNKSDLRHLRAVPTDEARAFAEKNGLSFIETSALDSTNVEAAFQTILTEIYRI

The target of test [3] is T2, RAB25 (Homo sapiens (Human), UniProt P57735).
T2 chain: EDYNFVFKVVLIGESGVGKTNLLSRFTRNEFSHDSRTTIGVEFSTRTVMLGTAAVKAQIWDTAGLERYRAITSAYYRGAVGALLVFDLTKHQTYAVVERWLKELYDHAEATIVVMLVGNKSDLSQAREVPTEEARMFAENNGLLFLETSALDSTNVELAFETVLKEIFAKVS

Test [4] deals with RAB2A (Homo sapiens (Human), UniProt P61019).
In test [5] the target is T3, RAB8A (Homo sapiens (Human), UniProt P61006).
T3 chain: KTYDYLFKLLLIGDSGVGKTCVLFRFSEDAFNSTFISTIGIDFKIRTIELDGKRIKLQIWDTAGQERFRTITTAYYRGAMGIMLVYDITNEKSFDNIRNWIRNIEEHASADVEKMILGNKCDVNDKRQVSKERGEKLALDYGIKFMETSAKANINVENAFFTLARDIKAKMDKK

B1: WDR44 (protein)
chain: VMGPQRPRSNSGRELTDEEILASVMIKNLDTGEEIPLSLAEEKLPTGINPLTLHIM
One may read the Kd as the concentration at which binding is half-saturated. A low value points to a tighter complex. On to B1, for which the Kd in test [1] is over 500 nM; in test [2], 75 nM; in test [3] it was over 500 nM; in test [4], over 500 nM; in test [5], over 500 nM.
